Laboratory results from patent publication US20040152708A1, “Trans-9,10-dehydroepothilone C and D, analogs thereof and methods of making the same” (priority 2002, published 2004).

How the values were obtained:
[1] = system: multi-drug resistant breast carcinoma cell line NCI/ADR; test: SRB cytotoxicity assay, NCI/ADR; assay type: cell-based, human; settings: read-out: IC50 (nM) NCI/ADR; Table 2; as described in Example 48
Description: (§1) Compounds of the invention may be screened for cytotoxicity using conventional assays well known to those skilled in the art. For example, cytotoxicity of the compounds may be determined by the SRB assay as disclosed in Skehan et al., J. Natl. Cancer Inst. 82:1107-1112 (1990), which is incorporated herein by reference. In the SRB assay, the following cultured cells are trypsinized, counted and diluted to the following concentrations per 100 μl with growth medium: MCF-7, 5000; NCI/ADR-Res, 7500; NCI-H460, 5000; A549, 5000; Skov3, 7500; and SF-268, 7500. The cells are seeded at 100 μl/well in 96-well microtiter plates. […] The amount of bound dye is determined by OD 515 nm, which correlates to the total cellular protein contents. The data is analyzed using standard statistical methodologies (such as those available with the software sold as KALEIDA GRAPH® by Synergy Software of Reading, Pa.) and the IC50s are calculated. […]
(§2) Tumor cells were seeded in 100 μl at 5000 (MCF-7), 7500 (NCI/ADR), 5000 (A549) and 7500 (SKOV3) cells per well in 96-well plates. […] The absorbance was measured at 515 nm using a 96-well microtiter plate reader (Spectra Max 250, Molecular Devices). The IC50 values were calculated using a KaleidaGraph program. […]

[2] = system: Human breast carcinoma cell line MCF-7; test: SRB cytotoxicity assay, MCF-7; assay type: cell-based; settings: read-out: IC50 (nM) MCF-7; Table 2; as described in Example 48
Description: as §1, §2

[3] = system: human ovarian cancer cell line SKOV-3; test: SRB cytotoxicity assay, SKOV3; assay type: cell-based; settings: read-out: IC50 (nM) Skov; Table 2; as described in Example 48
Description: as §1, §2

[4] = system: Human non-small cell lung cancer cell line A549; test: SRB cytotoxicity assay, A549; assay type: cell-based; settings: read-out: IC50 (nM) A549; Table 2; as described in Example 48
Description: as §1, §2

C/C(=C\c1ccccn1)[C@@H]1C/C=C(/C(F)(F)F)C/C=C/[C@H](C)[C@H](O)[C@@H](C)C(=O)C(C)(C)[C@@H](O)CC(=O)O1
IC50 [1]: 19 nM
IC50 [2]: 4.3 nM
IC50 [3]: 9.6 nM
IC50 [4]: 15 nM
